Assay results taken from patent US11370762B2, “Vinylarene derivative and application” (SHENYANG RESEARCH INSTITUTE OF CHEMICAL INDUSTRY CO., LTD., priority 2017, dated 2022).

Sequences of proteins named here, by UniProt entry; tags and fusion partners are left off.
UniProt P14902, whole entry: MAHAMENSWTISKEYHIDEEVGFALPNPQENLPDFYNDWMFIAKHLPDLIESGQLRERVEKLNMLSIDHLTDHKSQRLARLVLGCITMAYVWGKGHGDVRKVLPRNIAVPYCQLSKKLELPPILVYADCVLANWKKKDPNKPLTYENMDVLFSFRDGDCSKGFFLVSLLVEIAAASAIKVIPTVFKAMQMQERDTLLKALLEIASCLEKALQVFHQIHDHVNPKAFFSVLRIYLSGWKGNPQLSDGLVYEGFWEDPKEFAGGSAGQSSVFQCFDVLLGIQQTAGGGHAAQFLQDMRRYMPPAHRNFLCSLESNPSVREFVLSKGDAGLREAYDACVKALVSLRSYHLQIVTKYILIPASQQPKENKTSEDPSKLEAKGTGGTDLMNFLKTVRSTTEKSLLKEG

Target: IDO1 enzyme in Hela cells (Homo sapiens, UniProt P14902)
Assay: Inhibition of IDO1 enzyme in IFN-γ stimulated Hela cells (kynurenine read at 480 nm)
Assay type: cell-based
Settings: read-out: Inhibition rate IC50 (nmol/L) on IDO1 enzyme activity in Hela cells

For `Cc1ccc(NC(=O)Nc2cc([C@H]3C[C@H]3C(=O)O)ccc2N(CC(C)C)CC(C)C)cc1` (single isomer, unassigned), the IC50 was 1.56 nmol/L.
